pKi: −log10 of the molar value.
Molecular target: 5-hydroxytryptamine receptor 7 (Rattus norvegicus, UniProt P32305)

Sequences of proteins named here, by UniProt entry; tags and fusion partners are left off.
UniProt P32305, whole entry: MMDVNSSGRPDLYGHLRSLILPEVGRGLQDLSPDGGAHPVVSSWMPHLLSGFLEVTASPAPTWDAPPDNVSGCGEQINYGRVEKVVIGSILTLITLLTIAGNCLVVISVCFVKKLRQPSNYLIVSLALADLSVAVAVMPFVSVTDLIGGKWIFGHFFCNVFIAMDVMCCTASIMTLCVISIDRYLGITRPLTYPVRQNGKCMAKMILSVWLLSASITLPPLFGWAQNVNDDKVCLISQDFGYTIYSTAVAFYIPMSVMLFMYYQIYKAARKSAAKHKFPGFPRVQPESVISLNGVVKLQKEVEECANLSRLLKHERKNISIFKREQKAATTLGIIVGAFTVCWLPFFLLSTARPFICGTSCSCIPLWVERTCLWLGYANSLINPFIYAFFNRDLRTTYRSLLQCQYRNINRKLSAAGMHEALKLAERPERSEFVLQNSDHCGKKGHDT

Structure (SMILES): NCC(O)c1ccc(O)c(O)c1 (stereo not drawn) [Noradrenaline,(+)]
- pKi: 6.00
